Results on 24 compounds are retold here after patent US9642869B2, “Boronic acid derivatives and therapeutic uses thereof” (Rempex Pharmaceuticals, Inc., priority 2013, dated 2017).

Like-named read-outs stand apart in the source and are kept apart here.

This experiment has as its system SHV-12 KP1010.

For `O=C(COCc1ccccc1)N[C@H]1Cc2cccc(C(=O)O)c2OB1O` [CPD B, reference compound], the “TIG MPC4 SHV-12 KP1010” value was “Y (key: X: MIC of less than 1 μg/mL; Y: MIC of 1 μg/mL to 10 μg/mL; Z: MIC of greater than 10 μg/mL)”.
Take `O=C(N[C@H]1Cc2cccc(C(=O)O)c2OB1O)c1cncc(F)c1` [Compound 14, (R)-3-(5-fluoronicotinamido)-2-hydroxy-3,4-dihydro-2H-benzo[e][1,2]oxaborinine-8-carboxylic acid]: the “TIG MPC4 SHV-12 KP1010” value was “X (key: X: MIC of less than 1 μg/mL; Y: MIC of 1 μg/mL to 10 μg/mL; Z: MIC of greater than 10 μg/mL)”.
For the compound `CN(C)C(=O)CC(=O)N[C@H]1Cc2cccc(C(=O)O)c2OB1O` [Compound 10, (R)-3-(3-(dimethylamino)-3-oxopropanamido)-2-hydroxy-3,4-dihydro-2H-benzo[e][1,2]oxaborinine-8-carboxylic acid], the “TIG MPC4 SHV-12 KP1010” value is “X (key: X: MIC of less than 1 μg/mL; Y: MIC of 1 μg/mL to 10 μg/mL; Z: MIC of greater than 10 μg/mL)”.
Same read-out and setting: the entry for `O=C(CSc1nncs1)N[C@H]1Cc2cccc(C(=O)O)c2OB1O` [Compound 7, (R)-3-(2-(1,3,4-thiadiazol-2-ylthio)acetamido)-2-hydroxy-3,4-dihydro-2H-benzo[e][1,2]oxaborinine-8-carboxylic acid] is “X (key: X: MIC of less than 1 μg/mL; Y: MIC of 1 μg/mL to 10 μg/mL; Z: MIC of greater than 10 μg/mL)”; for `Nc1nnc(C(=O)N[C@H]2Cc3cccc(C(=O)O)c3OB2O)s1` [Compound 19, (R)-3-(5-amino-1,3,4-thiadiazole-2-carboxamido)-2-hydroxy-3,4-dihydro-2H-benzo[e][1,2]oxaborinine-8-carboxylic acid] it is “X (key: X: MIC of less than 1 μg/mL; Y: MIC of 1 μg/mL to 10 μg/mL; Z: MIC of greater than 10 μg/mL)”; for `Nc1nnc(SCC(=O)N[C@H]2Cc3cccc(C(=O)O)c3OB2O)s1` [Compound 5, (R)-3-(2-(5-amino-1,3,4-thiadiazol-2-ylthio)acetamido)-2-hydroxy-3,4-dihydro-2H-benzo[e][1,2]oxaborinine-8-carboxylic acid] it is “X (key: X: MIC of less than 1 μg/mL; Y: MIC of 1 μg/mL to 10 μg/mL; Z: MIC of greater than 10 μg/mL)”.
As to `O=C(CSC(F)(F)F)N[C@H]1Cc2cccc(C(=O)O)c2OB1O` [Compound 1, (R)-2-hydroxy-3-(2-(trifluoromethylthio)acetamido)-3,4-dihydro-2H-benzo[e][1,2]oxaborinine-8-carboxylic acid], the “TIG MPC4 SHV-12 KP1010” value (minimum BLI concentration inhibiting growth with tigemonam at 4 μg/mL) is listed as “X (MIC of less than 1 μg/mL)”.
As for `CNC(=O)CC(=O)N[C@H]1Cc2cccc(C(=O)O)c2OB1O` [Compound 21, (R)-2-hydroxy-3-(3-(methylamino)-3-oxopropanamido)-3,4-dihydro-2H-benzo[e][1,2]oxaborinine-8-carboxylic acid], the “TIG MPC4 SHV-12 KP1010” value was “X (key: X: MIC of less than 1 μg/mL; Y: MIC of 1 μg/mL to 10 μg/mL; Z: MIC of greater than 10 μg/mL)”.
The same measure, in the same setting: the entry for `CN(C)C(=O)C(=O)N[C@H]1Cc2cccc(C(=O)O)c2OB1O` [Compound 9, (R)-3-(2-(dimethylamino)-2-oxoacetamido)-2-hydroxy-3,4-dihydro-2H-benzo[e][1,2]oxaborinine-8-carboxylic acid] is “Y (key: X: MIC of less than 1 μg/mL; Y: MIC of 1 μg/mL to 10 μg/mL; Z: MIC of greater than 10 μg/mL)”.
As to `[N-]=[N+]=NCC(=O)N[C@H]1Cc2cccc(C(=O)O)c2OB1O` [Compound 8, (R)-3-(2-azidoacetamido)-2-hydroxy-3,4-dihydro-2H-benzo[e][1,2]oxaborinine-8-carboxylic acid], the “TIG MPC4 SHV-12 KP1010” value is reported as “X (key: X: MIC of less than 1 μg/mL; Y: MIC of 1 μg/mL to 10 μg/mL; Z: MIC of greater than 10 μg/mL)”.
On to `NC(=O)CC(=O)N[C@H]1Cc2cccc(C(=O)O)c2OB1O` [Compound 16, (R)-3-(3-amino-3-oxopropanamido)-2-hydroxy-3,4-dihydro-2H-benzo[e][1,2]oxaborinine-8-carboxylic acid], for which the “TIG MPC4 SHV-12 KP1010” value is recorded as “X (key: X: MIC of less than 1 μg/mL; Y: MIC of 1 μg/mL to 10 μg/mL; Z: MIC of greater than 10 μg/mL)”.
Same read-out and setting: next, `CSCC(=O)N[C@H]1Cc2cccc(C(=O)O)c2OB1O` [Compound 13, (R)-2-hydroxy-3-(2-(methylthio)acetamido)-3,4-dihydro-2H-benzo[e][1,2]oxaborinine-8-carboxylic acid]: “X (key: X: MIC of less than 1 μg/mL; Y: MIC of 1 μg/mL to 10 μg/mL; Z: MIC of greater than 10 μg/mL)”; `Nc1nnc(C(=O)N[C@H]2Cc3cccc(C(=O)O)c3OB2O)o1` [Compound 20, (R)-3-(5-amino-1,3,4-oxadiazole-2-carboxamido)-2-hydroxy-3,4-dihydro-2H-benzo[e][1,2]oxaborinine-8-carboxylic acid]: “X (key: X: MIC of less than 1 μg/mL; Y: MIC of 1 μg/mL to 10 μg/mL; Z: MIC of greater than 10 μg/mL)”.
For `O=CN[C@H]1Cc2cccc(C(=O)O)c2OB1O` [Compound 4, (R)-3-formamido-2-hydroxy-3,4-dihydro-2H-benzo[e][1,2]oxaborinine-8-carboxylic acid], the “TIG MPC4 SHV-12 KP1010” value is “X (key: X: MIC of less than 1 μg/mL; Y: MIC of 1 μg/mL to 10 μg/mL; Z: MIC of greater than 10 μg/mL)”.
Consider `O=C(N[C@H]1Cc2cccc(C(=O)O)c2OB1O)c1cncs1` [Compound 15, (R)-2-hydroxy-3-(thiazole-5-carboxamido)-3,4-dihydro-2H-benzo[e][1,2]oxaborinine-8-carboxylic acid], for which the “TIG MPC4 SHV-12 KP1010” value was “X (key: X: MIC of less than 1 μg/mL; Y: MIC of 1 μg/mL to 10 μg/mL; Z: MIC of greater than 10 μg/mL)”.
Still for that read-out and setting: next, `O=C(Cc1cccs1)N[C@H]1Cc2cccc(C(=O)O)c2OB1O` [CPD A, reference compound]: “X (key: X: MIC of less than 1 μg/mL; Y: MIC of 1 μg/mL to 10 μg/mL; Z: MIC of greater than 10 μg/mL)”; `NC(=O)N[C@H]1Cc2cccc(C(=O)O)c2OB1O` [Compound 6, (R)-2-hydroxy-3-ureido-3,4-dihydro-2H-benzo[e][1,2]oxaborinine-8-carboxylic acid]: “Y (key: X: MIC of less than 1 μg/mL; Y: MIC of 1 μg/mL to 10 μg/mL; Z: MIC of greater than 10 μg/mL)”; `NC(=O)C(=O)N[C@H]1Cc2cccc(C(=O)O)c2OB1O` [Compound 17, (R)-3-(2-amino-2-oxoacetamido)-2-hydroxy-3,4-dihydro-2H-benzo[e][1,2]oxaborinine-8-carboxylic acid]: “Y (key: X: MIC of less than 1 μg/mL; Y: MIC of 1 μg/mL to 10 μg/mL; Z: MIC of greater than 10 μg/mL)”.
The same measure, in the same setting: the entry for `O=C(CSC(F)F)N[C@H]1Cc2cccc(C(=O)O)c2OB1O` [Compound 3, (R)-3-(2-(difluoromethylthio)acetamido)-2-hydroxy-3,4-dihydro-2H-benzo[e][1,2]oxaborinine-8-carboxylic acid] is “X (key: X: MIC of less than 1 μg/mL; Y: MIC of 1 μg/mL to 10 μg/mL; Z: MIC of greater than 10 μg/mL)”; for `O=C(N[C@H]1Cc2cccc(C(=O)O)c2OB1O)c1cncnc1` [Compound 18, (R)-2-hydroxy-3-(pyrimidine-5-carboxamido)-3,4-dihydro-2H-benzo[e][1,2]oxaborinine-8-carboxylic acid] it is “X (key: X: MIC of less than 1 μg/mL; Y: MIC of 1 μg/mL to 10 μg/mL; Z: MIC of greater than 10 μg/mL)”.
Still for that read-out and setting: the entry for `O=C(CSC1CNC1)N[C@H]1Cc2cccc(C(=O)O)c2OB1O` [Compound 22, (R)-3-(2-(azetidin-3-ylthio)acetamido)-2-hydroxy-3,4-dihydro-2H-benzo[e][1,2]oxaborinine-8-carboxylic acid] is “X (key: X: MIC of less than 1 μg/mL; Y: MIC of 1 μg/mL to 10 μg/mL; Z: MIC of greater than 10 μg/mL)”.
Take `O=C(N[C@H]1Cc2cccc(C(=O)O)c2OB1O)c1cccnc1` [Compound 12, (R)-2-hydroxy-3-(nicotinamido)-3,4-dihydro-2H-benzo[e][1,2]oxaborinine-8-carboxylic acid]: the “TIG MPC4 SHV-12 KP1010” value was “X (key: X: MIC of less than 1 μg/mL; Y: MIC of 1 μg/mL to 10 μg/mL; Z: MIC of greater than 10 μg/mL)”.
Still for that read-out and setting: the entry for `Cn1nnnc1SCC(=O)N[C@H]1Cc2cccc(C(=O)O)c2OB1O` [Compound 2, (R)-2-hydroxy-3-(2-(1-methyl-1H-tetrazol-5-ylthio)acetamido)-3,4-dihydro-2H-benzo[e][1,2]oxaborinine-8-carboxylic acid] is “X (key: X: MIC of less than 1 μg/mL; Y: MIC of 1 μg/mL to 10 μg/mL; Z: MIC of greater than 10 μg/mL)”; for `CSC(=O)N[C@H]1Cc2cccc(C(=O)O)c2OB1O` [Compound 11, (R)-2-hydroxy-3-(methylthiocarbonylamino)-3,4-dihydro-2H-benzo[e][1,2]oxaborinine-8-carboxylic acid] it is “X (key: X: MIC of less than 1 μg/mL; Y: MIC of 1 μg/mL to 10 μg/mL; Z: MIC of greater than 10 μg/mL)”.
